The text below walks through data of patent US20090155799A1 (published 2009).

The target in test [1] is T1, Recombinant hREG4 (rhREG4), myc-His tagged, purified from culture supernatant of REG4 mH/293T cells (human, UniProt Q9BYZ8 23-158).
T1 construct: The REG4 ORF was cloned in frame with the myc-His tag and the protein was secreted into the supernatant of 293T cells; also called purified antigen; tagged antigen
The test can be described thus: immunoprecipitation of tagged antigen from culture supernatant on Protein G Sepharose, Western blot detection.

For test [2], the target named is T2, REG4 protein, native human (in patient serum and in PDAC tissue) (human, UniProt Q9BYZ8 23-158).
T2 construct: Endogenous protein in human serum specimens and tissue sections; also called serum REG4; REGIV
The test can be described thus: sandwich ELISA on serum specimens, immobilized monoclonal antibody, HRP-labeled anti-REG4 polyclonal antibody for detection. The protocol:
C8 MAXI NUNC-Immuno BreakApart Module (NUNC) was used as a microplate for the sandwich ELISA. Anti-REG4 monoclonal antibodies (clone 21-1, 24-1, and 34-1) were diluted with 0.1 M carbonate buffer (pH 9.6) to 10 μg/mL, added to the microplate at 50 μL/well, and left to stand overnight at 4° C. to immobilize each antibody by physical adsorption. After blocking with 1% BAS/PBS (RT, 2 hours), the blocking solution was discarded, and the residues were air-dried to prepare an assay plate. Specimens were diluted 5 times in reaction buffer (PBS, 0.1% Tween20, 1% BSA, pH 7.3), added to the assay plate at 50 μL/well, and reacted at room temperature for one hour. After washing four times with washing buffer (0.13% Tween20, 0.15 M NaCl/10 mM NaH₂PO₄), an HRP-labeled anti-REG4 polyclonal antibody was adjusted to 1.5 μg/mL with an enzyme-labeled antibody diluent (1% BAS, 0.135 M NaCl/20 mM HEPES) and added at 50 µL/well. After reaction at the room temperature for one hour, the plate was washed four times with washing buffer. An enzyme substrate solution (Moss Inc.; TMB Ultra Sensitive Substrate) was added at 50 μL/well for coloring, and after 30 minutes, 0.36NH₂SO₄ was added at 50 μL/well to terminate the color reaction. The absorbance (A450/A620) was measured to calculate REG4 concentration in the serum based on the calibration curves of each antibody (FIG. 7).
Background: In an ELISA, binding on a coated surface is turned into a signal by an enzyme label.

B1: anti-REG4 mouse monoclonal antibody clone 21-1 (antibody, V domains shown)
VH: EVQLQQSGTVLARPGASVKMSCKASGYTFTSYWMHWVKQRPGQGLEWIGAIYPGNSDTSYNQKFKGKAKLTAVTSTSTAYMELSSLTNEDSAVYYCTGPSLLGFAYWGQGTLVTVSA
VL: DIVMTQSHKFMSTSVGDRVSITCKASQDVSTAVAWYQQKPGQSPKLLIYSASYRYTGVPDRFTGSGSGTDFTFTISSVQAEDLAVYYCQQHYSTPRTFGGGTKL
notes: also called monoclonal clone 21-1 antibody
Take B1: the binding result in test [1] and in test [2] was “binds” in each case.
